Earlier results on one substance are cited in article PMC9629830.

By UniProt entry, the sequences of proteins in these tests, tags left out. Residues count along the entry.
UniProt P46531, 1754-2555: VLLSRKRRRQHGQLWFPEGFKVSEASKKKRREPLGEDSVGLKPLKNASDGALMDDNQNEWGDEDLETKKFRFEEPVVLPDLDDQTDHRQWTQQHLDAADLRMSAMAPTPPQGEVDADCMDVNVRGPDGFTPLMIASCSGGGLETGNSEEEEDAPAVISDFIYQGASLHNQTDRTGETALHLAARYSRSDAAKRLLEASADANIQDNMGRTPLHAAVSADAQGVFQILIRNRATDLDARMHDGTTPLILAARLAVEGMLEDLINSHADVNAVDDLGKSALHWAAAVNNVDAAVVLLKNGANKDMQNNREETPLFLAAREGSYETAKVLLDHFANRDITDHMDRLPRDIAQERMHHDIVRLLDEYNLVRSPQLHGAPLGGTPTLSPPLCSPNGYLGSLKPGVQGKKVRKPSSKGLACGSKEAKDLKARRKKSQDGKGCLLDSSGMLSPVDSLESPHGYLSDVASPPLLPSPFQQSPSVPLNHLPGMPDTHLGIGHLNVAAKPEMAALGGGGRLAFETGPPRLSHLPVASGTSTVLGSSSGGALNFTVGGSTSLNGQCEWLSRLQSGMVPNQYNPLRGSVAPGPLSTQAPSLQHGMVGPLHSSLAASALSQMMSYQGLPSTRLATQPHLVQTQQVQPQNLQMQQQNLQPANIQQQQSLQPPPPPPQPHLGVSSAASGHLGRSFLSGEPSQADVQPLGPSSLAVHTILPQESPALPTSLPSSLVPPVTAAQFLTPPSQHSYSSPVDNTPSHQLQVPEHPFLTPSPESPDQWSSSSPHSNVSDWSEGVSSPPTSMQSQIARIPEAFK
UniProt Q9NR61, 27-529: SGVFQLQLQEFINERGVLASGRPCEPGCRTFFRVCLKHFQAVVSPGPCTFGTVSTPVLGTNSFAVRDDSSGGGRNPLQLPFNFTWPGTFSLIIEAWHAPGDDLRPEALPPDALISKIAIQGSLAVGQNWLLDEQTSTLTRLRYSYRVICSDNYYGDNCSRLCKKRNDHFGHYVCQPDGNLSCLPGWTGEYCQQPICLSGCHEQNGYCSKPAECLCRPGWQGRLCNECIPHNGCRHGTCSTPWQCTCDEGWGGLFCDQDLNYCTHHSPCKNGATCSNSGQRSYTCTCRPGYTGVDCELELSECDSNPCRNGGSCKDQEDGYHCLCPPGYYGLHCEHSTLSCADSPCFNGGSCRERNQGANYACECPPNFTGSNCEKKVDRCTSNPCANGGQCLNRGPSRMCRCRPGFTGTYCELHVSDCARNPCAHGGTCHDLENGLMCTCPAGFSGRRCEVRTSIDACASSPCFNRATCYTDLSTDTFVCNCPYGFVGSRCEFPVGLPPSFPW

The pKd is −log10 of the Kd, conventionally taken in molar units.

This series deals with Notch1 (Homo sapiens) (UniProt P46531).

pKd: −log10 of the molar value.

Turning to DLL-4 (from UniProt Q9NR61), the pKd is 5.00.
